For orientation: IC50 means the concentration at which inhibition is half-maximal. Read a high IC50 as weaker potency.

Sequences of proteins named here, by UniProt entry; tags and fusion partners are left off.
UniProt P22001, whole entry: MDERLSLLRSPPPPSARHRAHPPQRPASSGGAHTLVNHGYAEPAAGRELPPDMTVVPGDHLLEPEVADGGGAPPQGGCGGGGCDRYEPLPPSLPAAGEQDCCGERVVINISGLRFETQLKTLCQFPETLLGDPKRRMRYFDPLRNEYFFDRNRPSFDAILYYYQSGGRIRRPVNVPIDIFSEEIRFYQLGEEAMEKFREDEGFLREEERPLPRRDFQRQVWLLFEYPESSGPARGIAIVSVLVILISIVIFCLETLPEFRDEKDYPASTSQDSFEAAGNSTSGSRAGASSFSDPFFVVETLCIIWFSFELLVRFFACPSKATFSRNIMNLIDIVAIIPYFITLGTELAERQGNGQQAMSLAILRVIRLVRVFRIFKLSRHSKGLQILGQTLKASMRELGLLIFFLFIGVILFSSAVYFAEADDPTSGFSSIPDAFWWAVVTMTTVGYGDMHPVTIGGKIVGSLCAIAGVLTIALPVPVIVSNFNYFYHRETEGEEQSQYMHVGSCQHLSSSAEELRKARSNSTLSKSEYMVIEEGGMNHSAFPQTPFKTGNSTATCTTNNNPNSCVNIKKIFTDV

This note sets out measurements from ChEMBL document CHEMBL1128377, “Novel inhibitors of potassium ion channels on human T lymphocytes” (J Med Chem, 1995).

The target of this test is Potassium voltage-gated channel subfamily A member 3 (Homo sapiens, UniProt P22001). Description: Concentration inhibiting [125I]ChTX (charybdotoxin) binding to N-type potassium channel.
`CCCCC/N=c1\ccn(Cc2ccc(Cl)cc2)c2c(F)cccc12` yielded an IC50 of 227 nM. In other words, the sub-micromolar range.
For the compound `CCN(CC)CC/N=c1\ccn(Cc2ccccc2Cl)c2cc(Cl)ccc12`, the IC50 was found to be 7680 nM.
`CCCCC/N=c1\ccn(Cc2ccc(Cl)cc2)c2ccc(OC)cc12` displayed an IC50 of 275 nM.
